Molecular target: T1, human renal renin (Homo sapiens, UniProt P00797)
T1 construct: human renal renin, free from acid proteolytic activity; from tissue; host or cells: human kidney (from the word 'renal')
Assay: inhibition of human renal renin in vitro, angiotensin I formed measured by radioimmunoassay
Assay type: biochemical
Conditions: pH 6
Protocol: At the end of the incubation, the amount of angiotensin I formed is measured by radioimmunoassay and the molor concentration required to cause 50% inhibition, expressed as the IC50, is calculated.

The chains behind the UniProt entries cited, without tags or fusion partners. Residues count along the entry.
UniProt P00797, 67-406: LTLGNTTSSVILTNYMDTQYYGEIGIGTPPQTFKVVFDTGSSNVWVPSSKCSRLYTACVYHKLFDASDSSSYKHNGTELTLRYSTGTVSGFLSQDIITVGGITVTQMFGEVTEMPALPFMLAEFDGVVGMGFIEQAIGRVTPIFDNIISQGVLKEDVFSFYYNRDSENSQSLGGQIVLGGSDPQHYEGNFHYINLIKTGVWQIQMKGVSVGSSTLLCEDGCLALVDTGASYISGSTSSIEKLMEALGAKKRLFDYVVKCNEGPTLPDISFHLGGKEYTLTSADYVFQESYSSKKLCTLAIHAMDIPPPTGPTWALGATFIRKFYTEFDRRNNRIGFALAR

For “Boc-Phe-Ala amide of 4-amino-1-cyclohexyl-3-hydroxy-6-methyl-1-(4-methylvaleryl)aminoheptane [Example 44]”, which IC50 is on record?
Its IC50 is 2000 nM.

— patent publication US4857507A, “Angiotensinogen analogs” (Abbott Laboratories, priority 1987, dated 1989)
